The values that follow come from patent US9040563B2, “Dual inhibitors of farnesyltransferase and geranylgeranyltransferase I” (H. Lee Moffitt Cancer Center and Research Institute, Inc., priority 2010, dated 2015).

Sequences of proteins named here, by UniProt entry; tags and fusion partners are left off.
UniProt P49356, whole entry: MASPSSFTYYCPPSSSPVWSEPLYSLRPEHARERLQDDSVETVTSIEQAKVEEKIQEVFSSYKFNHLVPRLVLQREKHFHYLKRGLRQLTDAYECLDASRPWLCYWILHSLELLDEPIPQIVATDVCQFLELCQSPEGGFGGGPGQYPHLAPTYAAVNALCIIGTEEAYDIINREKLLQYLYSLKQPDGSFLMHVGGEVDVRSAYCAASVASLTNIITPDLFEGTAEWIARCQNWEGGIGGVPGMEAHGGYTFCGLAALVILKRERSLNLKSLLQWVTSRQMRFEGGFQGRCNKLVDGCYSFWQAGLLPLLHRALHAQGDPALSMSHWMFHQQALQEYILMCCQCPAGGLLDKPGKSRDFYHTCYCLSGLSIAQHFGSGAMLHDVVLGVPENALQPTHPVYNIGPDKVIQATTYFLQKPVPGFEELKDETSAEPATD

Structures are written as SMILES. Read-outs that look alike come from different tables or passages of the source.

The target of one experiment is hFTase (Homo sapiens, UniProt P49354+P49356). Briefly: In vitro hFTase inhibition: incorporation of [3H]FPP into recombinant H-Ras-CVLS. The experiment is classed as biochemical.
For a further experiment, the system named is farnesylation of H-Ras. Briefly: Whole cell inhibition of H-Ras processing (farnesylation), immunoblot, oncogenic H-Ras-transformed NIH3T3 cells. In general terms: In western blotting, separated proteins are transferred to a membrane and probed.
Experiment [1] concerns geranylgeranylation of Rap1A. Briefly: Whole cell inhibition of Rap1A processing (geranylgeranylation), immunoblot, oncogenic H-Ras-transformed NIH3T3 cells. As to conditions: read-out: Rap1A processing IC50, n = 3 unless stated.

For orientation: IC50 means the concentration at which inhibition is half-maximal. Take `Cn1cnc(S(=O)(=O)N(CCN(Cc2cncn2C)c2ccc(C#N)cc2)CC2CCCCC2)c1`: the selectivity (ratio of GGTase-I to FTase IC50s) on hFTase (GGTase-I IC50 / hFTase IC50) amounted to 8.8. Also, the IC50 on hFTase (read-out: hFTase IC50, in vitro, average of three independent assays (n = 3) unless stated, errors are standard deviations) was 60 nM; in the experiment with farnesylation of H-Ras (read-out: H-Ras processing IC50 (whole cell), NIH 3T3, values in nM) it was 90 nM; in the experiment on farnesylation of H-Ras (read-out: H-Ras processing IC50, oncogenic H-Ras-transformed NIH3T3, n = 3 unless stated), 100 nM; in experiment [1], over 10000 nM. Moreover, the GGTase-I/FTase selectivity result at hFTase (selectivity for hFTase over GGTase-I) is “about 9 fold”.
